# Measured affinities in a library of Ab-91 heavy chain variants

The target is the same throughout: PDVDLGDISGINAS, from the HR2 region of SARS-CoV-2 spike.

The variants keep the light chain, the linker and the frameworks of Ab-91 (scFv order VL, the linker GGGGSGGGGSGGGGS, VH).
VL: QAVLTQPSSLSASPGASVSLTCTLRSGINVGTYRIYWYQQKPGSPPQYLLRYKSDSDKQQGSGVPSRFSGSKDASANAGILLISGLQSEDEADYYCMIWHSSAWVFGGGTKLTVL
VH: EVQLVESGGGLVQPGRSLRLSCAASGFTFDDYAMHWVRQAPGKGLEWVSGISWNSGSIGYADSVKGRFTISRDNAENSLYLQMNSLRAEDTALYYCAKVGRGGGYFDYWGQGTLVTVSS

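In library AAYL51, one, two or three CDR residues were substituted; doubles and triples were drawn at random. In AlphaSeq, yeast of one mating type display the scFv and yeast of the other type display the target. Mating (16 h, 30 °C) was followed by selection of diploids and sequencing of their barcodes. A regression on co-assayed BCL2-family reference pairs converts the normalised counts of each replicate to an apparent Kd. Mating was done three times.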

Each variant is given by its three heavy chain CDRs, as the data file delimits them; those of the parent are GFTFDDYAMH, GISWNSGSIGYADSVK, VGRGGGYFDY.
Numbers give log10(Kd / nM), so 0 is 1 nM and 3 is 1 µM. Smaller is tighter.
Replicates are averaged; those with no signal do not enter the mean.
"not detected" means that the variant was in the library but no mating with the target was seen in any replicate; the authors take this as a sign of poor binding, and no number exists.
In this assay the parent's reference entry averaged 1.86; its copy inside this library read 0.88.

CDR-H1	CDR-H2	CDR-H3	mean log10 Kd (nM)	detected
GFTFDKYPMH	GISWNSGSIGYADSVK	VGWGGGYFDY	1.26	3/3
GFWFDDYAMH	GISWNSGSQGEADSVK	VGRGGGYFDY	5.31	1/3
GFTFDDYAMH	GQSWNSGSIGAADSVK	VGRGGRYFDY	not detected	0/3
GFTFDDYAMH	GISPNSGSIGYADHVK	VGRGGGWFDY	1.11	3/3
GFTFDDYAMH	GISWNSGSIGYADQVK	VGRGIGYFDT	not detected	0/3
GFTFDDYAMY	GISWNSGSIGYQDSVK	VGRGGGDFDY	3.95	1/3
GFTFDDYAMH	GISWNSESIGYADSVK	VGSGGGYFLY	2.12	3/3
GFTFPDYRMH	GISWNSGSIGAADSVK	VGRGGGYFDY	not detected	0/3
GFTFDDYAMH	GIQWESGSCGYADSVK	VGRGGGYFDY	not detected	0/3
GFAFDDYAMH	GIFDNSGSIGYADSVK	VGRGGGYFDY	5.35	1/3
GFTFDDYAMH	GISWFSGSIGYADSVK	KGRGVGYFDY	not detected	0/3
GFTICDGAMH	GISWNSGSIGYADSVK	VGRGGGYFDY	2.98	3/3
GFTFDDYAMH	GISWICGSIDYADSVK	VGRGGGYFDY	not detected	0/3
GFTFDDYAMW	GISWNSGSIGYADRVK	VGRGGGYFVY	5.14	2/3
GFTFDDYAMH	RISWNSGSIGYTDSVK	VGRGGGYFDV	4.52	3/3
GFTFDDYAMH	GASWNSGSIGGADSVK	VRRGGGYFDY	not detected	0/3
GFTFDTYAMH	GISWNSGSIGYADSRK	VGRGGGYFDY	5.39	3/3
GFTFDDYAMH	GISWNAGSIGYADSVK	RGRGGGYFDR	not detected	0/3
GFTFDDYAMH	GISWNSGSIFYADSVK	VGQGGGYFDN	5.34	3/3
GFTFDDYALH	GISWNSGSIGYRDSVK	VGRGGGCFDY	3.21	1/3
GFFFDDYACH	GISWNSGSIGYADSVK	VGRGGHYFDY	4.68	2/3
GFTFDDYAMH	GISWNSGSIGYADSVK	PGRGWGMFDY	3.33	1/3
GFTFDDYAMH	IISWNSGSMGYADSMK	VGRGGGYFDY	not detected	0/3
PFTFDDYAMH	GISRNCGSIGYADSVK	VGRGGGYFDY	not detected	0/3
GFTFDDYAMH	GISWNWGSMGYADSVQ	VGRGGGYFDY	5.03	2/3
RFTFDDYAMQ	GISWNSGSIGYADSVK	VGRGGQYFDY	not detected	0/3
GFMSDDYAMH	GISWNSGSIGYADSPK	VGRGGGYFDY	not detected	0/3
GFTFDDYAMH	GISWNSYSIGYADSVK	VGRGGGHFKY	4.96	2/3
GFTFDDYRMY	GISWNSGSIGRADSVK	VGRGGGYFDY	not detected	0/3
GFEFDDYAMH	GIQWNSGSIGYADSVK	VGRGGRYFDY	2.92	1/3
GFTFDDYACH	GISWNSGSLGYADSEK	VGRGGGYFDY	4.81	2/3
GITFDDYAMH	GISWNSGSIGIADSVK	VGRGGGYFDY	not detected	0/3
GFTFDDYAMH	GISWNSGSIGYADSVA	VGAGMGYFDY	4.18	2/3
GFTFIDYAMN	GISWNSGSIGEADSVK	VGRGGGYFDY	5.77	2/3
GFTFDRYAMR	GISWNSGSIGYADSVK	VGRGGGTFDY	not detected	0/3
GFTFDDYAYH	GISWNSGSICSADSVK	VGRGGGYFDY	not detected	0/3
QFTFDIYAMH	GISWNSGSIGYADSVK	VGRGGGYFDY	not detected	0/3
GFHTDDYAMH	GISWNSGSDGYADSVK	VGRGGGYFDY	4.26	3/3
GFTFDDYAMH	GISWNSGSIGYADSRK	VGRIGGYFDY	not detected	0/3
GFTFDDYAWH	GISWNPGSIGYADSVK	VGRGGGYFDY	4.23	1/3
GFTFYDYAMH	GISWNSGSIGWADSVK	WGRGGGYFDY	4.64	1/3
GFTFDDYAMH	GIGWNSGGIGYADSVR	VGRGGGYFDY	not detected	0/3
GFTFDDRADH	GISWNSGSIGYADSVK	VGRGGGYFDY	3.85	1/3
GFTPDDYAMH	GISWNSGSIGYAESVK	VGRGGGSFDY	5.38	3/3
GFTFDDYAMH	RHSWNSGSIGYADSVK	VGRGPGYFDY	not detected	0/3
GFTFDDYAMH	GISWNSSSKGYADSVK	VGRGGGYGDY	not detected	0/3
FFTFDDMAMH	GISWNSGSIGYADSVK	VGRGGGYFDI	5.87	3/3
GFTFDDYAMH	DISWNSGSDGYADSVK	VGRGGGDFDY	4.83	3/3
SFTFKDYAMH	GIDWNSGSIGYADSVK	VGRGGGYFDY	not detected	0/3
GFTFDDYAMH	GLSWNSHSIGYADSVK	VGRGGGYFDY	4.82	2/3
GFTFDDYAMH	GISWNVGSIGYADAQK	VGRGGGYFDY	not detected	0/3
GFTFDDYAMY	GISRNSGSIGYADSVK	VGRGGGYFGY	4.88	1/3
GFTFDDYAMH	GISWNSGSIGYADGVK	VGRGHGYFDY	5.38	1/3
GFTFDDPAMH	GISWNSGSIGYADSVK	VGRVGGYFDQ	5.11	2/3
GDTFDDYAIV	GISWNSGSIGYADSVK	VGRGGGYFDY	3.12	2/3
GFTFDDYYMH	GISWNSGSIGYADSVK	VARGGGYFEY	3.42	1/3
KFTFDDYAMH	GISWNSGGIPYADSVK	VGRGGGYFDY	not detected	0/3
GFTFDDYAMH	GISWNQGSIGYADDVK	VGRGGTYFDY	4.96	1/3
GFTFDDYAMH	GISWNSGSIGYKDSVK	VGRGCGYFDY	4.47	2/3
GFTFDYYAMH	GISWNSGSIGYADWVK	VGRGGGYHDY	4.14	1/3
GFPFDDYAMH	GISWNSGSIGNADSVK	VGRGPGYFDY	not detected	0/3
GNTFDDYAMH	GISWNHCSIGYADSVK	VGRGGGYFDY	3.09	1/3
GFTFDDYAMA	GISWNSGSIDYADSVK	VGRGGGYFDY	not detected	0/3
GFSFDDYAMH	GISWSSGSIGYADSVK	SGRGGGYFDY	2.43	3/3
GFLFDDYAMH	QISWNSGSIGYADSVK	VGRLGGYFDY	not detected	0/3
GFTFDQYAMH	GISWNSGGIGYADSVK	HGRGGGYFDY	4.19	2/3
GFTFDHYAMH	GISWNSGSIGYADSVN	VGRGGGYKDY	2.04	3/3
GFTFDDYAMH	GIEWNSGSIGYADSVN	VGRGGGYFFY	not detected	0/3

Top 6 of the variants detected in all replicates, tightest first:

CDR-H1	CDR-H2	CDR-H3	mean log10 Kd (nM)	detected
GFTFDDYAMH	GISPNSGSIGYADHVK	VGRGGGWFDY	1.11	3/3
GFTFDKYPMH	GISWNSGSIGYADSVK	VGWGGGYFDY	1.26	3/3
GFTFDHYAMH	GISWNSGSIGYADSVN	VGRGGGYKDY	2.04	3/3
GFTFDDYAMH	GISWNSESIGYADSVK	VGSGGGYFLY	2.12	3/3
GFSFDDYAMH	GISWSSGSIGYADSVK	SGRGGGYFDY	2.43	3/3
GFTICDGAMH	GISWNSGSIGYADSVK	VGRGGGYFDY	2.98	3/3

Background: pairings of library AAYL51 with three empty control strains gave a value in 21% of cases (median 4.54, 5th percentile 3.26). Values in that range, when seen in few replicates, are hard to tell from nonspecific mating.

The measurements come from Engelhart et al. 2022 (doi:10.1038/s41597-022-01779-4) through the FLAb antibody collection.